In publication PMC8589317, “MAPK6-AKT signaling promotes tumor growth and resistance to mTOR kinase blockade” (Science Advances, 2021):

Biological target: T1, glutathione S-transferase (GST)-MAPK6 fusion protein (human)
T1 construct: MAPK6, human; CDS PCR amplified with primers from the start codon to the stop codon and cloned into the GTK3XF vector between EcoRI and Sal I; Major band of around 130 kDa by Coomassie
Test: pull-down; purified GST-MAPK6 or GST as bait, commercially available purified AKT1 protein as prey
Conditions: both partners purified

binding result: binds
B1: commercially available purified AKT1 protein (enzyme, UniProt P31749 1-480, looked up)
chain: MSDVAIVKEGWLHKRGEYIKTWRPRYFLLKNDGTFIGYKERPQDVDQREAPLNNFSVAQCQLMKTERPRPNTFIIRCLQWTTVIERTFHVETPEEREEWTTAIQTVADGLKKQEEEEMDFRSGSPSDNSGAEEMEVSLAKPKHRVTMNEFEYLKLLGKGTFGKVILVKEKATGRYYAMKILKKEVIVAKDEVAHTLTENRVLQNSRHPFLTALKYSFQTHDRLCFVMEYANGGELFFHLSRERVFSEDRARFYGAEIVSALDYLHSEKNVVYRDLKLENLMLDKDGHIKITDFGLCKEGIKDGATMKTFCGTPEYLAPEVLEDNDYGRAVDWWGLGVVMYEMMCGRLPFYNQDHEKLFELILMEEIRFPRTLGPEAKSLLSGLLKKDPKQRLGGGSEDAKEIMQHRFFAGIVWQHVYEKKLSPPFKPQVTSETDTRYFDEEFTAQMITITPPDQDDSMECVDSERRPHFPQFSYSASGTA
notes: AKT1, bought as purified protein; The catalogue number and the His tag are told for the in vitro kinase assay; That both are the same product is surmised
